From US20240217978A1 (CHONG KUN DANG PHARMACEUTICAL CORP., priority 2021, published 2024) come the findings set out here.

The assay concerns the target human adenosine A2a receptor (Homo sapiens (Human), UniProt P29274). Nature of the assay: A2a receptor binding affinity, [3H]-NECA radioligand binding test. Particulars: read-out: binding affinity IC50 for the human adenosine A2a receptor; [3H]-NECA 37 nM; membrane from HEK-293 cells transfected with human adenosine A2a receptor. On the procedure:
The binding affinity of the compounds according to Examples of the present invention to the human adenosine A2a receptor was evaluated by entrusting SB drug discovery in the UK.
A radioligand binding test was conducted by using [3H]-NECA (5′-N-[adenine-2,8-3H]-ethylcarboxamidoadenosine) and an adenosine A2a membrane. As the adenosine A2a membrane, a cell membrane prepared from HEK-293 cells transfected with human adenosine A2a receptor was used. The membrane used for the test was prepared by incubating with a radioligand until equilibrium was reached. In order to separate the radioligand-bound membrane, the unbound radioligand was separated by using Packard filtermate Harverster and glass filter plates.
10 μL of test compound dissolved in binding buffer (50 mM Tris, 10 mM MgCl2, 1 mM EDTA pH 7.4) and 20 μL of [3H]-NECA (final concentration of 37 nM) or reference inhibitor was mixed with 20 μL of A2a membrane in an unbound 96-well plate and incubated at room temperature for one hour. Prior to filtration, a 96-well harvest filter plate was coated with 0.33% polyethylenimine for 30 minutes and then washed with assay buffer. The binding reaction was transferred to the filter plate and washed three times with wash buffer. The dish was then dried, scintillant was added, and radioactivity was counted in a scintillation counter (Topcount NXT, Packard). […]

Consider `COCCN1CCN(C(=O)[C@@H]2CCCN2c2cc3nc(-c4ccco4)nn3c(N)n2)CC1`, for which the IC50 was 34 nM.
